Test results reported in US20260325535A1 (AXSOME THERAPEUTICS, INC., priority 2025, published 2026).

Test: pKa
Type: physicochemical

- pKa: 4.2
Structure (SMILES): Cc1cnc(NC(=O)C2=C(O)c3ccccc3S(=O)(=O)N2C)s1 [Meloxicam, 4-hydroxy-2-methyl-N-(5 methyl-2-thiazolyl)-2H-1,2-benzothiazine-3-carboxamide-1,1-dioxide]
